PubChem BioAssay AID1259313 (Sanford-Burnham Center for Chemical Genomics, 2017)
This is a selection; strong and weak results do not stand in their true shares. Activity calls are given as the source filed them.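 Rule for the calls: active = melting temperature shift of at least 10% of the positive control shift, at one fixed dose; inactive = the rest.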

Test system: Glutamate receptor ionotropic, NMDA 3A (GRIN3A) ligand-binding domain
Assay: binders of NR3A ligand-binding domain, primary screen, biophysical, differential scanning fluorimetry, uHTS (AID 1259313)
Details: NR3A LBD differential scanning fluorimetry, at 25 µM, stronger effect = higher value, 0% = protein alone, 100% = glycine-bound protein

Compound	Tm shift relative to glycine control
O=[N+]([O-])c1ccc(O)c(/C=N/Nc2ccc([N+](=O)[O-])cc2[N+](=O)[O-])c1	inactive: 1.64%
O=[N+]([O-])c1ncn(CCn2cnc([N+](=O)[O-])n2)n1	inactive: 0.31%
CC(=O)NC(SC(=S)N(C)C)C(Cl)(Cl)Cl (stereo unspecified)	inactive: -0.17%
O=[As](O)(c1ccccc1)c1ccc(O)cc1	inactive: -0.16%
Nc1ccc([As](=O)(O)c2ccc([N+](=O)[O-])cc2)cc1	inactive: -1.68%
C(Cc1nn[nH]n1)Cc1nn[nH]n1	inactive: -3.48%
O=C(OC1CN2CCC1CC2)c1cccc(Cl)c1 (stereo unspecified)	inactive: 0.6%
COc1ccc(N)c([N+](=O)[O-])c1[N+](=O)[O-]	inactive: 4.15%
O=P(Nc1ccccn1)(c1ccc(Br)cc1)c1ccc(Br)cc1	inactive: -4.54%
CN(C)C1(CNC(=O)c2ccc(Cl)c(S(N)(=O)=O)c2)CCCCC1	inactive: -2.02%
O=P(Nc1nc2ccccc2s1)(c1ccccc1)c1ccccc1	inactive: -0.16%
C[C@H]1OP(=O)(Oc2ccccc2)[C@H](O)[C@H](O)[C@H]1N=[N+]=[N-] (stereo partly specified)	inactive: 0.9%
CC(C)C(=O)NC(Sc1ccccc1)C(Cl)(Cl)Cl (stereo unspecified)	inactive: 3.57%
O=P(Nc1nccs1)(c1ccccc1)c1ccccc1	inactive: 0.7%
c1nnnn1CCn1cnnn1	inactive: 3.15%
N#C/C(=C\c1ccc(N(CCBr)CCBr)cc1)C(N)=O	inactive: -1.65%
CC(=O)c1ccc(N2CC2c2ccncc2)cc1 (stereo unspecified)	inactive: 2.18%
COC(=O)C1(C)COP(=O)(NCc2ccccc2)OC1 (stereo unspecified)	inactive: 1.28%
Cc1ccccc1CN(C)C(=O)COC(=O)C(O)(c1ccccc1)c1ccccc1	inactive: -0.33%
C[C@@H]1C=CCP(=O)(Oc2ccccc2)O1 (stereo partly specified)	inactive: 0%
C[C@H]1OP(=O)(Oc2ccccc2)C[C@@H]2O[C@@H]21 (stereo partly specified)	inactive: 0.9%
CC(=O)Nc1ccc([As](=O)(O)O)c(O)c1	inactive: -0.86%
CC(=O)Nc1ccc(Oc2c([N+](=O)[O-])cc([N+](=O)[O-])cc2[N+](=O)[O-])cc1	inactive: -19.9%
O=P1(Nc2nc3ccc(Cl)cc3s2)COc2ccccc2O1 (stereo unspecified)	inactive: 1.15%
CCOc1ccc(C2=NCC(CBr)S2)cc1 (stereo unspecified)	inactive: 0.31%
CCc1cc(O)c([N+](=O)[O-])c(C)c1[N+](=O)[O-]	inactive: 2.42%

Compound	Tm shift relative to glycine control
CC(C)(C)C(=O)NC(Sc1ccccc1)C(Cl)(Cl)Cl (stereo unspecified)	inactive: 0.4%
COC(=O)c1cc2c(s1)N=C(c1ccccc1)N(C)P2(=O)N1CCOCC1 (stereo unspecified)	inactive: 3.51%
Cc1ccc(OP(=O)(Nc2ccccn2)Oc2ccc(C)cc2)cc1	inactive: -0.6%
CC(=O)NC(SC(=S)N(CC(C)C)CC(C)C)C(Cl)(Cl)Cl (stereo unspecified)	inactive: -0.92%
O=C(OC1CN2CCC1CC2)c1ccccc1 (stereo unspecified)	inactive: -1.09%
CCC(=O)N1C2C3N(C(=O)CC)C1C1N(C(=O)CC)C(C(N1C(=O)CC)N3C(=O)CC)N2C(=O)CC	inactive: -0.64%
Cc1ccccc1OP(=O)(Nc1ccccn1)Oc1ccccc1C	inactive: 0.19%
CC(NC(=O)COC(=O)C(O)(c1ccccc1)c1ccccc1)c1ccccc1 (stereo unspecified)	inactive: -0.17%
CN(C)C(=O)Oc1noc2ccccc12	inactive: 1.98%
O=c1c2cc([N+](=O)[O-])ccc2[nH]c2c([N+](=O)[O-])cc([N+](=O)[O-])cc12	active: 25.1%
CCNC(=S)/N=C(\N)N[N+](=O)[O-]	inactive: 2.54%
O=C(NC1CCS(=O)(=O)C1)NP(=S)(Oc1ccccc1)Oc1ccccc1 (stereo unspecified)	inactive: 2.02%
c1ccc(-c2nn[nH]n2)c(-c2nn[nH]n2)c1	inactive: -2.16%
Cc1ccc(NP(=O)(Oc2cccc(C)c2)Oc2cccc(C)c2)nc1	inactive: 2.25%
O=P1(N(CCCl)CCCl)OCCC2CCCCN21 (stereo unspecified)	inactive: -2.95%
CCN(N=Nc1nonc1N)c1nonc1N	inactive: -2.23%
Nc1cccc2ccc([As](=O)(O)O)cc12	inactive: 4.86%
O=C(O)c1ccccc1[As](=O)(O)O	inactive: -0.4%
CCCC1OP(N)(=O)OCC1CC (stereo unspecified)	inactive: -0.77%
O=P(Nc1nc2ccc(Cl)cc2s1)(c1ccccc1)c1ccccc1	inactive: -0.3%
CCOP(=O)(Nc1ccccc1)OCC	inactive: -0.68%
Cc1cc(SC(NC(=O)c2ccc(F)cc2)C(Cl)(Cl)Cl)ncn1 (stereo unspecified)	inactive: 0.44%
Cc1ccc(NP(=O)(Oc2ccccc2F)Oc2ccccc2F)nc1	inactive: -0.2%
CC(C)CC(=O)NC(Sc1ccc(Cl)cc1)C(Cl)(Cl)Cl (stereo unspecified)	inactive: -0.54%
Nc1cc(N)c2nonc2c1[N+](=O)[O-]	inactive: 3.84%
Oc1ccccc1CNc1ccccn1	inactive: 0.7%

Compound	Tm shift relative to glycine control
O=C(NC(Sc1ccncn1)C(Cl)(Cl)Cl)c1ccccc1 (stereo unspecified)	inactive: -2.89%
NC(=O)c1cc([N+](=O)[O-])cc([N+](=O)[O-])c1N	inactive: 1.26%
Cc1ccc(N/C(=N/P(=O)(N2CCOCC2)N2CCOCC2)N2CCOCC2)cc1	inactive: -0.75%
COc1ccccc1OP(=O)(Nc1ccc(C)cn1)Oc1ccccc1OC	inactive: 0.16%
Cc1ccc(OP(=O)(Nc2nccs2)Oc2ccc(C)cc2)cc1	inactive: 1.49%
Clc1ccc(Cl)c(NC2=NCC(CBr)S2)c1 (stereo unspecified)	inactive: -1.34%
CN1CCCC(OC(=O)C(c2ccccc2)c2ccccc2)C1 (stereo unspecified)	inactive: -0.59%
Nc1ccc([As](=O)(O)c2ccc(N)cc2)cc1	inactive: -0.95%
C[N+]1=C2C=CC=CC=C2SC12C([N+](=O)[O-])=CC([N+](=O)[O-])=C[C-]2[N+](=O)[O-] (stereo unspecified)	inactive: 2.42%
CCN(/C(=N/P(=O)(N1CCOCC1)N1CCOCC1)N1CCOCC1)c1ccc(OC)cc1	inactive: 0.36%
CC(C)=N/N=C(\N)N[N+](=O)[O-]	inactive: 0.16%
CN(C)C(=O)OCCc1n(C)cc[n+]1C	inactive: -11.3%
CC1CCN(C(=O)Oc2c(Cl)cc(Cl)c3cccnc23)CC1	inactive: 2.46%
COc1ccc(C2=NCC(CBr)S2)cc1 (stereo unspecified)	inactive: 0.15%
O=[N+]([O-])c1cccc2n[nH]nc12	inactive: -2.23%
CC(=O)N1C2C3N(C(C)=O)C1C1N(C(C)=O)C(C(N1C(C)=O)N3C(C)=O)N2C(C)=O	inactive: 0.55%
Cc1ccc(NP(=O)(Oc2ccccc2)Oc2ccccc2)nc1	inactive: -0.39%
CCc1nc2c(n1)c1c(non1O)c1c2no[n+]1[O-]	inactive: 0.29%
O=[N+]([O-])c1cc([N+](=O)[O-])c(CCNc2ccccc2)c([N+](=O)[O-])c1	inactive: -3.43%
CC(C)(C)C(=O)NC(Sc1ccncn1)C(Cl)(Cl)Cl (stereo unspecified)	inactive: -3.55%
O=[N+]([O-])c1ncn(CCn2ncnc2[N+](=O)[O-])n1	inactive: -0.67%
O=[N+]([O-])c1cccc(NC2=NCC(CBr)S2)c1 (stereo unspecified)	inactive: 2.25%
COC(=O)C1(C)COP(=O)(Nc2ccccc2)OC1 (stereo unspecified)	inactive: 2.74%
O=C(O)CNc1ccc([As](=O)(O)O)cc1	inactive: -2.02%
O=P1(N(CCCl)CCCl)OCCCS1 (stereo unspecified)	inactive: 1.22%
O=C(Nc1cc([As](=O)(O)O)ccc1O)c1ccccc1	inactive: 5.66%

Compound	Tm shift relative to glycine control
CCOC(=O)Nc1cccc([As](=O)(O)O)c1	inactive: -2.23%
O=[N+]([O-])c1ccc(Nc2ccc(Oc3ccc([N+](=O)[O-])cc3[N+](=O)[O-])cc2)c([N+](=O)[O-])c1	inactive: 1.8%
O=P(Nc1ccccn1)(c1cccc2ccccc12)c1cccc2ccccc12	inactive: -1.75%
Cc1cc(SC(NC=O)C(Cl)(Cl)Cl)ncn1 (stereo unspecified)	inactive: 0.19%
CC1CCNP(=O)(N(CCCl)CCCl)O1 (stereo unspecified)	inactive: 2.42%
CCOC(=O)Nc1ccc([As](=O)(O)O)c(O)c1	inactive: -1.17%
CCCCOc1ccc(C(=O)NCC2(N3CCCCC3)CCCCC2)cc1OC	inactive: -0.43%
Cc1cc(SC(NC(=O)c2ccccc2)C(Cl)(Cl)Cl)nc(C(C)C)n1 (stereo unspecified)	inactive: 3.36%
CCOC(=O)c1ccc(NC(=O)C(C)(CCl)SC)cc1 (stereo unspecified)	inactive: 2.37%
O=C(OC1CN2CCC1CC2)c1cccc([N+](=O)[O-])c1 (stereo unspecified)	inactive: 2.08%
CCC(C)N(CC(C)C)C(=S)SC(NC(C)=O)C(Cl)(Cl)Cl (stereo unspecified)	inactive: -1.38%
COP1(=S)c2c(C)nn(CCC#N)c2N=C(c2ccc(F)cc2)N1C (stereo unspecified)	inactive: -1.03%
O=C(COc1ccccc1)OC1CN2CCC1CC2 (stereo unspecified)	inactive: 0.69%
O=C(Nc1ccncc1[N+](=O)[O-])c1ccc([N+](=O)[O-])cc1[N+](=O)[O-]	inactive: -0.19%
COc1ccc(N/C(=N/P(=O)(N2CCOCC2)N2CCOCC2)N2CCOCC2)cc1	inactive: 0.46%
O=[N+]([O-])c1cc(Oc2ccc([N+](=O)[O-])cc2C(F)(F)F)cc([N+](=O)[O-])c1	inactive: -6.81%
O=C(OC1CN2CCC1CC2)C12CC3CC(CC(C3)C1)C2 (stereo unspecified)	inactive: 0.69%
Cc1cc(=O)[nH]c(N[N+](=O)[O-])n1	inactive: 0.51%
Cc1c2c(nc3ccccc13)SC(C(Cl)Cl)C2 (stereo unspecified)	inactive: 4.19%
COc1ccc2nc(NP(=O)(c3ccccc3)c3ccccc3)sc2c1	inactive: -1.45%
COc1cc(I)ccc1[As](=O)(O)O	inactive: -0.16%
O=P1(N(CCCl)CCCl)Nc2ccccc2N1	inactive: 1.22%
O=P1(N(CCCl)CCCl)OCCCN1CCCl (stereo unspecified)	inactive: 1.02%
